In ChEMBL document CHEMBL2311356, “The effect of 17-N substituents on the activity of the opioid κ receptor in nalfurafine derivatives” (Bioorg Med Chem Lett, 2013) one finds Ki data, which are given here for 1 molecule.

Sequences of proteins named here, by UniProt entry; tags and fusion partners are left off. A change or cut given only in a name is not applied to a line headed by its entry.
UniProt P41144: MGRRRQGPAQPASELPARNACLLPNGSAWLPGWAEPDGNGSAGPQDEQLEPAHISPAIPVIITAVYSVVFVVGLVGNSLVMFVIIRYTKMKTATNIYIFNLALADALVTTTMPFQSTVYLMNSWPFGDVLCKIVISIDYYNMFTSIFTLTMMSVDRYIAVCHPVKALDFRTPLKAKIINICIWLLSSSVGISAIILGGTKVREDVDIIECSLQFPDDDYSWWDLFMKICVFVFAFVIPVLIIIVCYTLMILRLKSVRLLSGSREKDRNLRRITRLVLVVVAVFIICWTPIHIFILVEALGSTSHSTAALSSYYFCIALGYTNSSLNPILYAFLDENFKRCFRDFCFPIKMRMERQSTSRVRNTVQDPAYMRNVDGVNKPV
UniProt P32300, whole entry, looked up: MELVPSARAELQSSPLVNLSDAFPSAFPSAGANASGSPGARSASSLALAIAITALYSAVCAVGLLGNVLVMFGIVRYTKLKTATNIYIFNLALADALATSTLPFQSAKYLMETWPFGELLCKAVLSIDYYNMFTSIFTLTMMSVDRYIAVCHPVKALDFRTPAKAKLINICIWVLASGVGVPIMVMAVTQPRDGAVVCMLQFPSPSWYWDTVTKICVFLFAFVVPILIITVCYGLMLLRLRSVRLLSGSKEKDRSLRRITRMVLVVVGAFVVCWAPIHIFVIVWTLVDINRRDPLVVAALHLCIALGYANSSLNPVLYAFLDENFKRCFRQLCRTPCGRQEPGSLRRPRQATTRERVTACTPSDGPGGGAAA
UniProt P42866, whole entry, looked up: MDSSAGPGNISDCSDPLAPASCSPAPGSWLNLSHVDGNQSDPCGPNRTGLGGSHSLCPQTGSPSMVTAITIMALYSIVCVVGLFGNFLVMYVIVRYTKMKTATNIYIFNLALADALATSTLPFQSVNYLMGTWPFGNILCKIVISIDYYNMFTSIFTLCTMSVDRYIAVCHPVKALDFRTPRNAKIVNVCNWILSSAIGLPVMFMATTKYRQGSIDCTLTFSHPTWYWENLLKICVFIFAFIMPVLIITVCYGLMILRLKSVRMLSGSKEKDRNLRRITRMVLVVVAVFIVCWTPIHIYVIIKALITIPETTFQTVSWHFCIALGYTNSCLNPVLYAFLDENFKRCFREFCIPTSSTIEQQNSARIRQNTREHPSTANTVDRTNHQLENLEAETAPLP

Test [1] has as its target Kappa-type opioid receptor (Cavia porcellus, UniProt P41144). Nature of the test: Displacement of [3H]U69593 from kappa opioid receptor in guinea pig cerebellum after 1 hr by liquid scintillation counting analysis. (In general: Displacement assays read how much labelled ligand stays bound in the presence of the test substance.)
The target in test [2] is Delta-type opioid receptor (Mus musculus, UniProt P32300). Nature of the test: Displacement of [3H]DPDPE from delta opioid receptor in mouse whole brain membranes without cerebellum after 1 hr by liquid scintillation counting analysis.
For a further test, the target named is Mu-type opioid receptor (Mus musculus, UniProt P42866). The experiment in a line: Displacement of [3H]DAMGO from mu opioid receptor in mouse whole brain membranes without cerebellum after 1 hr by liquid scintillation counting analysis.

A word on the Ki: it is a dissociation constant, usually derived from enzyme kinetics or from competition with a known ligand. As to `CN(C(=O)Cc1ccccc1)[C@H]1CC[C@@]2(CCCO2)C[C@@H]1N1CCCC1`, the Ki in test [1] was determined as 1.37 nM; in test [2] it was 391 nM; on Mu-type opioid receptor, 548 nM.
